# Values of other authors, collected in PMC3741332.
# Conditions: administered orally as the pro-drug oseltamivir phosphate; background statement, no reference given
compound,measurement,value
CCOC(=O)C1=C[C@@H](OC(CC)CC)[C@H](NC(C)=O)[C@@H](N)C1,share of a given dose that reaches the blood circulation as OC,At least 75%
